From ChEMBL document CHEMBL4229498 (Bioorg Med Chem, 2018)

species: Homo sapiens; assay: Selectivity ratio of Ki for human CB2 receptor to Ki for human CB1 receptor

Point of comparison: `O=S(=O)(CCC(F)(F)F)N1CCN(c2ncnc3c2nc(-c2ccccc2Cl)n3-c2ccc(Cl)cc2)CC1`, Ratio Ki 420. Against it:
- O=S(=O)(CC1CCCCC1)N1CCN(c2ncnc3c2nc(-c2ccccc2Cl)n3-c2ccc(Cl)cc2)CC1 — lower, 54
- CCCCS(=O)(=O)N1CCN(c2ncnc3c2nc(-c2ccccc2Cl)n3-c2ccc(Cl)cc2)CC1 — higher, 830
- O=C(NC1(C(F)(F)F)CCCC1)N1CCN(c2ncnc3c2nc(-c2ccccc2Cl)n3-c2ccc(Cl)cc2)CC1 — lower, 54
- CC(C)(C)CC(=O)N1CCN(c2ncnc3c2nc(-c2ccccc2Cl)n3-c2ccc(Cl)cc2)CC1 — higher, > 2500
- O=C(CN1CCCCC1)N1CCN(c2ncnc3c2nc(-c2ccccc2Cl)n3-c2ccc(Cl)cc2)CC1 — lower, 238
- CC(C(=O)N1CCN(c2ncnc3c2nc(-c2ccccc2Cl)n3-c2ccc(Cl)cc2)CC1)c1ccccc1 (stereo unspecified) — lower, 190
- O=S(=O)(CC1CCOCC1)N1CCN(c2ncnc3c2nc(-c2ccccc2Cl)n3-c2ccc(Cl)cc2)CC1 — higher, 1000
- O=C(C1COc2ccccc2O1)N1CCN(c2ncnc3c2nc(-c2ccccc2Cl)n3-c2ccc(Cl)cc2)CC1 (stereo unspecified) — lower, 122
- O=C(Nc1ccc(F)cc1F)N1CCN(c2ncnc3c2nc(-c2ccccc2Cl)n3-c2ccc(Cl)cc2)CC1 — higher, 640
- CC(C)CS(=O)(=O)N1CCN(c2ncnc3c2nc(-c2ccccc2Cl)n3-c2ccc(Cl)cc2)CC1 — higher, 1400
- O=C(Nc1ccccn1)N1CCN(c2ncnc3c2nc(-c2ccccc2Cl)n3-c2ccc(Cl)cc2)CC1 — higher, 1200
- O=C(NCC1CCCCC1)N1CCN(c2ncnc3c2nc(-c2ccccc2Cl)n3-c2ccc(Cl)cc2)CC1 — lower, 17
- CS(=O)(=O)N1CCN(c2ncnc3c2nc(-c2ccccc2Cl)n3-c2ccc(Cl)cc2)CC1 — lower, 68
- O=C(NC1CCCC1)N1CCN(c2ncnc3c2nc(-c2ccccc2Cl)n3-c2ccc(Cl)cc2)CC1 — lower, 150
- O=C(CC1CCOC1)N1CCN(c2ncnc3c2nc(-c2ccccc2Cl)n3-c2ccc(Cl)cc2)CC1 (stereo unspecified) — lower, 375
- O=C(Nc1ccccc1)N1CCN(c2ncnc3c2nc(-c2ccccc2Cl)n3-c2ccc(Cl)cc2)CC1 — lower, 400
- CCS(=O)(=O)N1CCN(c2ncnc3c2nc(-c2ccccc2Cl)n3-c2ccc(Cl)cc2)CC1 — lower, 330
- O=C(Nc1ccccc1F)N1CCN(c2ncnc3c2nc(-c2ccccc2Cl)n3-c2ccc(Cl)cc2)CC1 — lower, 220
- O=S(=O)(C1CC1)N1CCN(c2ncnc3c2nc(-c2ccccc2Cl)n3-c2ccc(Cl)cc2)CC1 — higher, 460
- O=C(OC1CCC1)N1CCN(c2ncnc3c2nc(-c2ccccc2Cl)n3-c2ccc(Cl)cc2)CC1 — higher, 1100
- O=C(C1CCSCC1)N1CCN(c2ncnc3c2nc(-c2ccccc2Cl)n3-c2ccc(Cl)cc2)CC1 — lower, 265
- CCCCC(=O)N1CCN(c2ncnc3c2nc(-c2ccccc2Cl)n3-c2ccc(Cl)cc2)CC1 — lower, 67
- O=C(NC1CCCCC1)N1CCN(c2ncnc3c2nc(-c2ccccc2Cl)n3-c2ccc(Cl)cc2)CC1 — higher, 440
- O=C(Nc1ccc(F)c(F)c1)N1CCN(c2ncnc3c2nc(-c2ccccc2Cl)n3-c2ccc(Cl)cc2)CC1 — higher, 840
- O=C(N1CCN(c2ncnc3c2nc(-c2ccccc2Cl)n3-c2ccc(Cl)cc2)CC1)C(F)(F)F — lower, 130
- CC(C)S(=O)(=O)N1CCN(c2ncnc3c2nc(-c2ccccc2Cl)n3-c2ccc(Cl)cc2)CC1 — higher, 700
- CCCS(=O)(=O)N1CCN(c2ncnc3c2nc(-c2ccccc2Cl)n3-c2ccc(Cl)cc2)CC1 — higher, 710
- O=C(Nc1ccc(F)cc1)N1CCN(c2ncnc3c2nc(-c2ccccc2Cl)n3-c2ccc(Cl)cc2)CC1 — lower, 110
- O=C(Nc1ccc(OC(F)F)nc1)N1CCN(c2ncnc3c2nc(-c2ccccc2Cl)n3-c2ccc(Cl)cc2)CC1 — higher, > 1000
- CC(C)(C)OC(=O)N1CCN(c2ncnc3c2nc(-c2ccccc2Cl)n3-c2ccc(Cl)cc2)CC1 — higher, 680
